Test results as given in US20090176773A1, “Non-Peptidic Inhibitors of AKAP/PKA Interaction” (FORSCHUNGSVERBUND BERLIN E.V., priority 2005, published 2009).

Sequences of proteins named here, by UniProt entry; tags and fusion partners are left off. A change or cut given only in a name is not applied to a line headed by its entry. Residues count along the entry.
UniProt P12368, 2-401: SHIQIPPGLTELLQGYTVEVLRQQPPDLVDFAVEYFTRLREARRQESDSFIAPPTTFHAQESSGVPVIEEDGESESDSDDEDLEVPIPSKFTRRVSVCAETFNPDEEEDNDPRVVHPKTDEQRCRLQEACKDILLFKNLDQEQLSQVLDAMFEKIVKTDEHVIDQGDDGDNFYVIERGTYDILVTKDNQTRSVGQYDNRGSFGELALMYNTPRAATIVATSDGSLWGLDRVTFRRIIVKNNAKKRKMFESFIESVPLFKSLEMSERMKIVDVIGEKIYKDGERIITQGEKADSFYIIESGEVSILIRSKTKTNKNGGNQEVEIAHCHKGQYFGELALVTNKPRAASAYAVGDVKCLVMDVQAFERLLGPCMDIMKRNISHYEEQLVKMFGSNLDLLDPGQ
UniProt Q6JP77: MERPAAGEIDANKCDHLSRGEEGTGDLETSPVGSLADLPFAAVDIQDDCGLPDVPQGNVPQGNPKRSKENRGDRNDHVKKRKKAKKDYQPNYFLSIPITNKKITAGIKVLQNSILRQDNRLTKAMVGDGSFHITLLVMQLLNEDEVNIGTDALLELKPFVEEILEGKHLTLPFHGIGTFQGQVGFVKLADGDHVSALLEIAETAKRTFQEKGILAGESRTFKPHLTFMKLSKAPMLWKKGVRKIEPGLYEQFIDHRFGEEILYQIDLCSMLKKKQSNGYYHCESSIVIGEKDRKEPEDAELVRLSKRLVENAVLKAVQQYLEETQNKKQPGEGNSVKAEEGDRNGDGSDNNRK

Molecular target: AKAP18delta-RIIalpha interaction (GST-AKAP18delta binding to plate-bound PKA-RIIalpha) (Rattus norvegicus, UniProt P12368+Q6JP77)
Assay: ELISA for quantitative detection of protein-protein binding between PKA-RIIalpha and GST-AKAP18delta (library screening, validation, IC50)
Conditions: substance 244 μM, control without substance = 100%
Text: ELISA is a method wherein an antigen is detected with a specific antibody. Detection proceeds via an enzyme linked covalently with one of the binding partners, which enzyme catalyzes chromogen conversion.
Because one of the two binding partners is immobilized, removal of unbound antibodies or antigens is very easy. Detection proceeds via observing the intensity (I) of chemiluminescence using a photomultiplier in a special reading device (ELISA reader). The output of the measured values is in relative light units (RLU).
In the present case, the point was to investigate whether binding of one protein (PKA) to another (AKAP18delta-GST) would be inhibited by the presence of small organic molecules. A sandwich ELISA was therefore developed wherein the RIIalpha PKA subunit, to which AKAP proteins bind, was bound on 384-well microtiter plates (MTP).
The white color improves detection by reflection of the chemiluminescence being formed and simultaneously prevents illumination of neighboring wells. […] Subsequently, bound GST-AKAP18delta was quantified via antibodies and chemiluminescence. […]
To adapt the binding curves to the measured values (see results), the one-site binding model was used as a basis, which model applies to binding of GST-AKAP18delta to RIIalpha. […]
The measured values for IC50 calculation were adapted to the one-site competition model. […]

Compound: COc1cc[n+](C(=O)N(C)C)cc1 [Compound 1075]
- Binding (in %): relative binding of GST-AKAP18delta to PKA-RIIalpha in the presence of each substance, based on a control: 56.79%
